# Literature values as cited in patent US10550080B2 (BRISTOL-MYERS SQUIBB COMPANY, priority 2016, dated 2020).
# The chains behind the UniProt entries cited, without tags or fusion partners.
# UniProt Q15858, whole entry: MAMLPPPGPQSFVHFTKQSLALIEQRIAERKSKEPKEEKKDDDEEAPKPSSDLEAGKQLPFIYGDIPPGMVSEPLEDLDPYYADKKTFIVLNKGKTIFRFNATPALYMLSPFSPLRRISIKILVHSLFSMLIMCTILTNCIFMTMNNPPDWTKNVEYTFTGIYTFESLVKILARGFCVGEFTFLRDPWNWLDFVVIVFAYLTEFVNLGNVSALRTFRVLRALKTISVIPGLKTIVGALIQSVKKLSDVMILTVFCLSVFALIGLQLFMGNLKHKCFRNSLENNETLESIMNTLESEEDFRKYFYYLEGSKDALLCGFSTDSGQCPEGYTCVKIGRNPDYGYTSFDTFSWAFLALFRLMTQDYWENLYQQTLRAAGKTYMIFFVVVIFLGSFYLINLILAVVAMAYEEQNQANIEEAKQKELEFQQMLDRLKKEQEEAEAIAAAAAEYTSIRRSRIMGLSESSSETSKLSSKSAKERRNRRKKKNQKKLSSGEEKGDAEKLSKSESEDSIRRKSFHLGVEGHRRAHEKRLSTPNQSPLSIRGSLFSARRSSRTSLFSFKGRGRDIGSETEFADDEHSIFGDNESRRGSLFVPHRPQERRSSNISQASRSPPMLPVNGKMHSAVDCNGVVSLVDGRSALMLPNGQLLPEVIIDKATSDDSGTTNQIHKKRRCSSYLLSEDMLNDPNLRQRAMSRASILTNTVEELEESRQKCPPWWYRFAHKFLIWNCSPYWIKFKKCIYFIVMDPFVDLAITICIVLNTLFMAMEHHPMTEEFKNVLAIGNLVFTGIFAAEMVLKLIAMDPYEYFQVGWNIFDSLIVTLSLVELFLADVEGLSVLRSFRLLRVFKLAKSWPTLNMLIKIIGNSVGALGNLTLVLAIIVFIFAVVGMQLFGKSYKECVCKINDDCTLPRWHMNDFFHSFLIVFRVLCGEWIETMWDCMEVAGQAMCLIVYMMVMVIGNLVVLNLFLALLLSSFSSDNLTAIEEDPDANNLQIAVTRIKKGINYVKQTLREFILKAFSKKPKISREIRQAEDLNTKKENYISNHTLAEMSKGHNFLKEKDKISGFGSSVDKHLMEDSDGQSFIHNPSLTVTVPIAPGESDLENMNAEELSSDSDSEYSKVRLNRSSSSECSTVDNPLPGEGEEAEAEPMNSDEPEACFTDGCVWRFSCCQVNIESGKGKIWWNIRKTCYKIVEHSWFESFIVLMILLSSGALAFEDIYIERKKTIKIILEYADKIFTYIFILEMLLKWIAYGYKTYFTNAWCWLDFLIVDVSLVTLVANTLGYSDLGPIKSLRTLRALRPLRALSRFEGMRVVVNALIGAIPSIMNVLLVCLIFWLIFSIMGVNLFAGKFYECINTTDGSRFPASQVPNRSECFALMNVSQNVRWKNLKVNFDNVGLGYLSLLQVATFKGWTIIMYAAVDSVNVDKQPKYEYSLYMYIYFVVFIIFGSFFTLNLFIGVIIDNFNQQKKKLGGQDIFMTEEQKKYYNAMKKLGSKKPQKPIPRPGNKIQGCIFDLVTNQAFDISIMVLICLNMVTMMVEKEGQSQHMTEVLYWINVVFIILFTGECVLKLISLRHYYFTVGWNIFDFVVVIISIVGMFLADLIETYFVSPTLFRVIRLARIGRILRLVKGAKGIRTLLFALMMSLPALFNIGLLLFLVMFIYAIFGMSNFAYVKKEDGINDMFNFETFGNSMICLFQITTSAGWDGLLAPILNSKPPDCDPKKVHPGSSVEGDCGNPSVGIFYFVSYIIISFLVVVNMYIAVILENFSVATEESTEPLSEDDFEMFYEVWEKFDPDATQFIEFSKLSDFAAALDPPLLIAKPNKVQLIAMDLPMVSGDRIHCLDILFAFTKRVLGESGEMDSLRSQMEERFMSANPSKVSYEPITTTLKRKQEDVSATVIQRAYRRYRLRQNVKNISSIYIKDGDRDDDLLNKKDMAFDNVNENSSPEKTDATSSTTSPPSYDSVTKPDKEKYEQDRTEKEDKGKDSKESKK
# Target: NaV1.7 (Homo sapiens (Human), UniProt Q15858)
# Details: Schmalhofer et al. 2008; cited from earlier work
substance,measurement,value
ProTx-II,selective for NaV1.7 over other NaV channels,approximately 100 fold
